Data: patent publication US4590178A (Ajinomoto Company, Incorporated, priority 1982, dated 1986)

For “Dibenzylphosphoryl-L-alanyl-L-prolyl-L-proline L-arginine salt [Example 1]”, the “Median lethal dose (LD50)” value (mouse) was “more than 15 g/kg” and the “Median lethal dose (LD50)” value (rat) was “more than 15 g/kg”.
